This is an account of results in PubChem BioAssay AID1259374 (The Scripps Research Institute Molecular Screening Center, 2018).

Amino acid sequences for entries named in this document (tags omitted).
UniProt O75030, whole entry: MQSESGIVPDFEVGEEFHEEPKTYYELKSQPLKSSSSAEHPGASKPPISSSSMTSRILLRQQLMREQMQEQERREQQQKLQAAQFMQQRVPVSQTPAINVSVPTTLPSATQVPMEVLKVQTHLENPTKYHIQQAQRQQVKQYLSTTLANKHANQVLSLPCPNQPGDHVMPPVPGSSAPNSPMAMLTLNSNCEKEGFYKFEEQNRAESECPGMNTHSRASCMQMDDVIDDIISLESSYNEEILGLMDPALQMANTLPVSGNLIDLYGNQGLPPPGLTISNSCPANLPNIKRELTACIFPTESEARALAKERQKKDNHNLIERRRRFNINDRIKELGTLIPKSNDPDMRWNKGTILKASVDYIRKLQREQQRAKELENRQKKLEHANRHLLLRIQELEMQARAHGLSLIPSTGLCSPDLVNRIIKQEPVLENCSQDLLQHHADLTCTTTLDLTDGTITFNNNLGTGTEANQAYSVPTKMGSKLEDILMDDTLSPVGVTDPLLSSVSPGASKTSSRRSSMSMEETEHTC

The entries are a selection whose mix differs from that of the whole data set. The source made the active and inactive calls. Rule as the data show it: active = inhibition above about 50%; inactive = the rest.

For this assay, the target named is Microphthalmia-associated transcription factor (Homo sapiens) (UniProt O75030). The assay can be described thus: MITF inhibitors, primary screen, biochemical, AlphaScreen, human (AID 1259374).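 Also: 0% = vehicle wells with protein.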 Particulars: AlphaScreen MITF homodimerization, bead proximity signal; at 2.6 µM; stronger effect = higher value. On the technique in general: In Alpha technology, singlet oxygen from a donor bead excites a nearby acceptor bead.
Usually inhibition stands for the change of the read-out against control, counted positive when it falls. `COc1cccc(CN(CCCl)CCCl)c1`: the inhibition is inactive: 2.88%. For the compound `CCOC(=O)N1CCC(Nc2cccc(C)c2)CC1`, the inhibition is inactive: 3.7%. For `Clc1ccc(NC2CCN(Cc3ccccc3)CC2)cc1` the value was inactive: 5.53%. In the case of `Fc1cccc(NC2CCN(CCc3ccccc3)CC2)c1` it was inactive: 9.85%; in that of `CCCN1CCC(Nc2ccc(Cl)cc2)CC1`, inactive: -7.46%; in that of `CN1CCC(Nc2ccccc2Cl)CC1`, inactive: -0.21%. In the case of `CN(C)C1(CNC(=O)c2cc3c(s2)CCC3)CCCCC1` it was inactive: 5.12%; in that of `[C-]#N.[K+].c1ccc2c(c1)OCCOCCOc1ccccc1OCCOCCO2`, inactive: -0.07%; in that of `CC1CN(Cc2ccccc2)CCC1=O` (centres undefined), inactive: 15.9%. Consider `CC(C)(C)OC(=O)N1CCC(Nc2ccc(Cl)cc2Cl)CC1`, for which the inhibition was inactive: -16.8%. As for `CN1CCC(Nc2ccccc2F)CC1`, the inhibition was inactive: 21.3%. For `CCN1CCC(Nc2ccc(F)cc2)CC1` the value was inactive: 35%; for `CCOP(=O)(OCC)SCC(=O)N(CC)CC`, inactive: -2.6%; for `O=C(NCC1(N2CCCCC2)CCCCC1)c1ccc([N+](=O)[O-])s1`, inactive: 8.95%. For `CC1CN(C)C(C)CC1Nc1ccccc1` (centres undefined) the value was inactive: 5.82%; for `O=C(O)C1(Nc2ccccc2)CCN(Cc2ccccc2)CC1`, inactive: 14.4%. Consider `CCCOc1ccc(C(=O)NCC2(N(C)C)CCCCC2)cc1`, for which the inhibition was inactive: -3.48%. In the case of `CC(C)(C)OC(=O)N1CCC(Nc2ccc(F)cc2F)CC1` it was inactive: -4.42%. In the case of `CN1CCC(Nc2ccc(F)c(Cl)c2)CC1` it was inactive: 29.9%.

With `Fc1ccc(NC2CCN(Cc3ccccc3)CC2)cc1F`, the inhibition was inactive: 14.5%. For `COc1ccc(NC2CCN(Cc3ccncc3)CC2)cc1` the value was inactive: 16.9%; for `CN1CCC(Nc2ccc(Cl)cc2)CC1`, inactive: 21.3%. For `CN(C)C1(CNC(=O)c2cc(=O)[nH]c3ccccc23)CCCCC1` the value was inactive: -1.31%. In the case of `COc1cc(OC)cc(C(=O)NCC2(N3CCOCC3)CCCCC2)c1` it was inactive: 0.3%. Consider `CCC(CO)(C(=O)OC1CN2CCC1CC2)c1ccccc1` (centres undefined), for which the inhibition is inactive: 5.79%.

With `NC(=O)C1(Nc2ccccc2)CCN(Cc2ccccc2)CC1`, the inhibition was inactive: 8.23%. For `COc1ccc(C(=O)NCC2(N3CCOCC3)CCCCC2)cc1OC` the value was inactive: -2.38%; for `COc1cc(C(=O)NCC2(N3CCOCC3)CCCCC2)cc(OC)c1C`, inactive: 11%. For `CN1CCC(Nc2ccc(F)cc2)CC1`, the inhibition is inactive: 29.6%.

In the case of `O=C1CCN(CCc2ccccc2)CC1`, the inhibition was inactive: 2.29%.

On to `CCOC(=O)N1CCC(Nc2ccc(Cl)cc2)CC1`, for which the inhibition was inactive: -10.7%.

Turning to `CCOC(=O)N1CCC(Nc2ccc(C)cc2)CC1`, the inhibition is inactive: 8.5%. For `O=C(NCC1(N2CCOCC2)CCCCC1)c1ccc2c(c1)OCO2` the value was inactive: -0.04%; for `COc1cccc(OC)c1CN1CCC(=O)CC1`, inactive: 8.31%. For `COc1ccc(CCN2CCC(Nc3ccc(OC)cc3)CC2)cc1` the value was inactive: -2.03%; for `CC(=O)N1CCN(C/C=C/c2ccccc2[N+](=O)[O-])CC1`, inactive: 3.55%. With `N#Cc1ccc(C(=O)NCC2(N3CCCCC3)CCCCC2)cc1`, the inhibition is inactive: -2.27%.

Turning to `c1ccc(CN2CCC(Nc3ccccc3)CC2)cc1`, the inhibition is inactive: 21.2%. For `CCCN1CCC(Nc2cc(OC)cc(OC)c2)CC1` the value was inactive: 21%.
